Measured values taken from US7022738B2, “α-ketoamide derivative and use thereof” (Senju Pharmaceutical Co., Ltd., priority 2002, dated 2006).

Protein sequences, listed by entry. Tags and fused reporters are not part of them. Lines headed by an entry give the natural chain unless they say otherwise; changes in a name come on top.
UniProt P07384: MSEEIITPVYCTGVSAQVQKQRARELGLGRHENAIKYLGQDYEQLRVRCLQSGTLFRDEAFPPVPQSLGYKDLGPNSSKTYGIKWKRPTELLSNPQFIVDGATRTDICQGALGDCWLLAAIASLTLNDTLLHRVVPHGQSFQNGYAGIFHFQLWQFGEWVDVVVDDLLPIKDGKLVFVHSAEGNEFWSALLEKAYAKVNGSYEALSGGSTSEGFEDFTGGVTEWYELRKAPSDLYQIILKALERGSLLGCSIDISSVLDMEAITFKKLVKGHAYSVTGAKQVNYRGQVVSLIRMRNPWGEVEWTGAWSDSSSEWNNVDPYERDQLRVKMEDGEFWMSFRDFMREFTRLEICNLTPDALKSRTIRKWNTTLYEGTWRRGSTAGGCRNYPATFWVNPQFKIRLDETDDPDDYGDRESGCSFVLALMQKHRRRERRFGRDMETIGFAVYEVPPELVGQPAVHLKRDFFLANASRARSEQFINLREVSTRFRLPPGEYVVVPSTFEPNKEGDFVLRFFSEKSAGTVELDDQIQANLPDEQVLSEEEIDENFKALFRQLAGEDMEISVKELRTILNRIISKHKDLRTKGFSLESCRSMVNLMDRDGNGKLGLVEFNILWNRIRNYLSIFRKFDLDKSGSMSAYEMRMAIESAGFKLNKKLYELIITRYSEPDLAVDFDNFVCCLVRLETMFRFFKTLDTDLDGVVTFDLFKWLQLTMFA

Target: μ-calpain (Homo sapiens, UniProt P07384)
Experiment: biochemical

CCCCNC(=O)C(=O)[C@H](CC(C)C)NC(=O)[C@@H](NS(=O)(=O)c1ccc(F)cc1)C(C)C [Compound 1, (3S)-N-Butyl-3-((2S)-2-(((4-fluorophenyl)sulfonyl)amino)-3-methylbutanoylamino)-5-methyl-2-oxohexanamide]
IC50: 21 nM
